Results reported in PMC3409642 (Pharmaceutical research, 2012).

Target: T1, UGT1A9 (Homo sapiens, UniProt O60656)
T1 sequence (O60656 26-530): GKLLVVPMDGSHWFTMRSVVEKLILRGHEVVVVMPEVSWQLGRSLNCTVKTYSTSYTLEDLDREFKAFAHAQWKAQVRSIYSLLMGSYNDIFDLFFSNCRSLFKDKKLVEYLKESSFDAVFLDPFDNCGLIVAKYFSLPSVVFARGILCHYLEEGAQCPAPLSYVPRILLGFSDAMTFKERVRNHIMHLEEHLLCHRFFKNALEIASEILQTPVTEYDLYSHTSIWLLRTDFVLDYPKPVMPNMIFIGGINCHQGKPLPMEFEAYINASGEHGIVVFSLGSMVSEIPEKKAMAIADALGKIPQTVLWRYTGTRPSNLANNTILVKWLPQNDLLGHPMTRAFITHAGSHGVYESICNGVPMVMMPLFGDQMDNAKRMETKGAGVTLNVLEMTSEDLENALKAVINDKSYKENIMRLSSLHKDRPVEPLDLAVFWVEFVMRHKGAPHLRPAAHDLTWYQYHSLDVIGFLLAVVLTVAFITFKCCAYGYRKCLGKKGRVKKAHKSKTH
Test: Kinetic profiling of glucuronidation by expressed human UGT1A9
Details: pH 7.4

Row | Vmax | SMILES
1 | 1680 pmol/mg/min | Oc1ccc(F)cc1 [compound 115, 4-Fluorophenol]
2 | 5454 pmol/mg/min | COC(=O)c1ccc(O)cc1 [compound 132, Methyl-4-hydroxybenzoate]
